One assay deals with tTA mice. The note with it: mouse, in vivo, po, 30 mg/kg. Here is the method:
(§1) The room temperature was maintained between 20 and 23° C. with a relative humidity maintained around 50%. Chow and water were provided ad libitum for the duration of the study.
(§2) An effect was considered significant if p<0.05.

Another assay relates to Tg4510 mice. The note with it: mouse, in vivo. Here is the method:
as §1, §2

Each structure is given as a SMILES string.

Turning to `Cc1cc(C)nc(N2CC3CN(C(=O)c4c(F)cccc4-n4nccn4)CC3C2)n1` (centres unmarked) [seltorexant, [5-(4,6-dimethyl-pyrimidin-2-yl)-hexahydro-pyrrolo[3,4-c]pyrrol-2-yl]-(2-fluoro-6-[1,2,3]triazol-2-yl-phenyl)-methanone], the “distance traveled compared with tTA-Vehicle mice (Fisher's LSD)” value with tTA mice is given as “traveled significantly less”. For the same compound, the “reduction in travel (distance traveled)” value in the assay on Tg4510 mice is “approximately 50%”.

For the origin of these results see patent publication US20240122928A1, “Methods For Treating Agitation In Subjects With Mild Cognitive Impairment Or Major Neurocognition Disorder” (JANSSEN PHARMACEUTICA NV, priority 2022, published 2024).
